Measurements reported in PubChem BioAssay AID652268 (The Scripps Research Institute Molecular Screening Center, 2013).
The list shows a part of the results, in another mix than the full data. The source made the active and inactive calls. No stated cut-off is given here; in the data, active means activation above about 1.3%; inactive means the rest.

assay: nonspecific cAMP agonists in parental HEK-CNG cells, counter-screen for GalR3 antagonist project, cell-based, fluorescence, high throughput (AID 652268); details: HEK293-CNG parental cells, cAMP membrane potential fluorescence; at 3 µM; hits give high values; normalised: DMSO wells 0%, forskolin wells 100%

Row | Compound | activation
1 | CCN(CC)CCCOC(=O)C(O)(c1ccccc1)c1ccccc1 | inactive: 0.3%
2 | O=[N+]([O-])c1cc([N+](=O)[O-])c(Nc2ccc(Cl)cc2)c([N+](=O)[O-])c1 | inactive: 0.13%
